The source of these data is patent publication US9629825B2, “Pharmaceutical composition comprising (1r,4r)-6′-fluoro-N,N-dimethyl-4-phenyl-4′,9′-dihydro-3′H-spiro[cyclohexane-1,1′-pyrano[3,4,b]indol]-4-amine and a gabapentinoid” (dated 2017).

“And” between values parts separate entries of the source, which are not always exact repeats. Identical values can stand only once. Like-named read-outs stand apart in the source and are kept apart here.

The experiment concerns male Sprague-Dawley rats with ligatures applied to the left L5/L6 spinal nerves (tactile allodynia at the ipsilateral paw). Particulars: n = 10, Mean SEM, first 0.0316 μg/kg (hemicitrate), second 0.316 mg/kg, combination 0.0316 μg/kg+0.316 mg/kg (ratio 1:10,000).

As for `CN(C)[C@]1(c2ccccc2)CC[C@]2(CC1)OCCc1c3cc(F)ccc3[nH]c12`, the “% MPE (Maximum possible effect), withdrawal threshold of the ipsi-lateral hind paw” value was 20.8 % MPE and 20.8 ± 12.4 % MPE (30 min. after i.v. administration); 8.3 ± 10.7 % MPE (60 min. after i.v. administration); −1.3 ± 6.0 % MPE (180 min. after i.v. administration).
